The values that follow come from publication PMC12217679 (Scientific Reports, 2025).

The structures appear in SMILES notation. “Also recorded” adds a separate entry of the source.

Data set [1] concerns hepatic protein levels of NPC1L1 and CYP7A1. Briefly: Western blot of hepatic CYP7A1 and NPC1L1, IAP-KO mice. To be noted: 600 mg/kg B.W./d oral, 14 d, vs IAP-KO, Control, n = 6. The format is in vivo, mouse (IAP-KO, Akp3^-/-). (In general: Immunoblotting shows a protein as a band on a membrane.)
A short description of data set [2]: Body weight, food intake, liver weight, fecal weight in mice. To be noted: WT and IAP-KO mice, 600 mg/kg B.W./d oral, 14 d; 600 mg/kg/day. In kind it is in vivo, mouse (WT and IAP-KO). The procedure, abridged:
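Male C57BL6J wild-type and IAP global knockout (Akp3-/-) mice, 7 weeks old, about 22 g, individually housed at 22 ± 2 °C on a 12-h light/dark cycle with free access to food and water. Acclimated 6–8 d on a non-purified diet, then allotted by body weight to four groups. Fed a high-cholesterol diet for 14 d while given test compound orally at 600 mg/kg B.W./d once daily.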

Data set [3] is described as follows: Expected toxicity of IIAEK supplement. In kind it is in vivo. To be noted: expected from Lacprodan BLG NOAEL.
Data set [4] deals with hepatic protein levels of NPC1L1 and CYP7A1. Briefly: Western blot of hepatic CYP7A1 and NPC1L1, WT mice. In kind it is in vivo, mouse (WT). To be noted: 600 mg/kg B.W./d oral, 14 d, vs WT, Control, n = 6.

`CC[C@H](C)[C@H](N)C(=O)N[C@H](C(=O)N[C@@H](C)C(=O)N[C@@H](CCC(=O)O)C(=O)N[C@@H](CCCCN)C(=O)O)[C@@H](C)CC` [IIAEK, Ile-Ile-Ala-Glu-Lys]: the “effect on hepatic protein levels (CYP7A1, NPC1L1)” value in data set [1] is on record as “absent”. Also, in data set [2], the body weight entry is listed as “no negative effects; also recorded: No significant differences”, the food intake result is given as “no negative effects; also recorded: No significant differences” and the liver weight result was “no negative effects; also recorded: No significant differences”. The expected nontoxic dose result in data set [3] is reported as “expected to be nontoxic at doses up to 1000 mg/kg B.W./day”. Also, in data set [4], the “liver CYP7A1 protein level” value is given as “significantly increased” and the “liver NPC1L1 protein level” value is listed as “significantly decreased”.
